Our source for the residence of photoactivatable-mCherry PKAc values is publication PMC10881042.

The assay has as its target PKA type I regulatory subunit RIα, in H295R adrenal cells (human (endogenous in H295R)) (UniProt P10644).

In turn, “V5-tagged PKAc-W196G, in H295R adrenal cells (enzyme)” registered a residence of photoactivatable-mCherry PKAc at the site of photoactivation after 12.5 s in H295R cells with smAKAP-GFP and RIα-iRFP of 65%.
